Sampled rows, rich in hits. Any-hit rate of the full collection: about 1.3%.
F508del corr: correctors of CFTR F508del function in bronchial epithelial cells. activity (quench increase), % at 7.58 µM. CFBE cells, YFP halide quenching; stimulated with forskolin plus potentiator P3; % fluorescence drop versus neutral controls. AID 720511. hit rate 0.36% among 350,000;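 active means mean added fluorescence quench of at least 8% versus neutral control, with both replicates also reaching 8%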;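 further: cells transiently co-express mutant CFTR-F508del with the halide-sensitive YFP; corrector assay measuring rescue of mutant channel to the surface after 24 h compound exposure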
miR-122 sensor: inhibitors of miR-122 in Huh7 cells. hit rate 0.3% among 340,000. Huh7 miR-122 Renilla luciferase sensor, 48 h; neutral wells = 0, positive control = 100. activation (reporter increase), % at 12.5 µM;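 active means mean replicate activation score at least 90 and every replicate individually at or above 90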;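 further: higher luciferase means less miR-122 activity so hits act as miR-122 inhibitors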
PglD inh: blocks C. jejuni PglD acetyltransferase activity. inhibition, % at 12.5 µM. purified PglD enzyme, DTNB colorimetric CoA detection. AID 602405. hit rate 0.098% among 360,000; in the data active means inhibition above about 16%, passing the limit was not always enough
LGR2 antag: blocks bursicon-induced cAMP signaling via Drosophila LGR2; hit rate 0.35% among 380,000; AID 720647; HEK293 LGR2, CRE-luciferase, bursicon-stimulated, 4 h; inhibition, % at 9.99 µM;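 active means drop in luminescence signal, shown as inhibition above about 50% in the replicate tests, limit read from the data, passing the limit was not always enough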;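 further: agonist challenge used bursicon conditioned medium at about half maximal strength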
Yeast UUG start-1: modulators of start codon recognition fidelity in yeast; activity score, % at 18.7 µM; actives 0.13% (n = 350,000); S. cerevisiae UUG-firefly luciferase reporter, luminescence/redox ratio;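 active = replicate mean at a twofold rise or more, about +100% in these data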;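 note: firefly luciferase made from a UUG start codon reports start codon fidelity; reporter light over untreated wells divided by growth signal over untreated wells; some hits fall short of that in this replicate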
EWS-Fli block: inhibitors of EWS/Fli oncoprotein transcriptional activity; A673 NR0B1-luciferase reporter, viability-normalised; inhibition, % at 12.6 µM; hit rate 0.67% among 350,000; AID 651661;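 active means mean inhibition of at least 50% after viability correction, with every replicate also passing that limit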;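 further: firefly luciferase signal divided by Alamar Blue viability fluorescence both relative to DMSO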
Yeast UUG start-2: yeast start codon fidelity modulation; AID 652061; 540 tested, under 10 active; shares compounds with Yeast UUG start-1; activation, % at 38 µM; S. cerevisiae UUG-start firefly luciferase, luminescence, 4 h; 100% means double the DMSO signal;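 active means signal increase whose fitted curve reaches an absolute level of 40 at a concentration under 10 µM; inactive means activity opposite to the expected increase, or the rest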
Starred values were filed as active, the others as inactive; i = inactive; · = no result given; [ ] = remark or other dose.

entry	canonical_smiles	F508del corr	miR-122 sensor	PglD inh	LGR2 antag
1	Cc1ccc(NC(=O)CSc2nnc([C@H](C)NC(=O)OC(C)(C)C)o2)c(C)c1	2	-10	-8	-3
2	Cc1cccc(NC(=O)CSc2nnc([C@H](C)NC(=O)OC(C)(C)C)o2)c1C	-1	-1	-2	-4
3	COc1ccccc1CN1[C@@H]2CN(C(=O)C3CCC3)c3ccccc3[C@@H]2[C@@H]1CO	0	0[16.7 µM]	3	4
4	O=C(C1CCCC1)N1C[C@H]2[C@@H](c3ccccc31)[C@H](CO)N2C(=O)Cc1ccccn1	1	0[16.7 µM]	13	6
5	O=C(C1CCC1)N1C[C@H]2[C@@H](c3ccccc31)[C@H](CO)N2C(=O)Cc1ccccn1	-1	-30[16.7 µM]	4	7
6	O=C(C1CCC1)N1C[C@@H]2[C@H](c3ccccc31)[C@H](CO)N2C(=O)Cc1ccccn1	-1	-30[16.7 µM]	-2	1
7	COc1ccccc1CN1[C@@H]2CN(C(=O)C3CCCC3)c3ccccc3[C@@H]2[C@@H]1CO	2	-20[16.7 µM]	-2	10
8	COc1ccc(C(=O)Nc2ccc(/C(C)=N/NC(=O)c3ccccc3O)cc2)cc1OC	·	0	4	-17

entry	Yeast UUG start-1	EWS-Fli block	Yeast UUG start-2
1	214*	9	3
2	-9	·	·
3	128*	9	i
4	-8	5	·
5	130*	3	i
6	111*	-2	i
7	1	13	·
8	-7	-20	·

(next part)
entry	canonical_smiles	F508del corr	miR-122 sensor	PglD inh	LGR2 antag
9	C[C@@H]1CN([C@H](C)CO)C(=O)c2cc(NS(C)(=O)=O)ccc2O[C@@H]1CN(C)C	-2	2[16.7 µM]	-2	10
10	C[C@@H]1CN([C@@H](C)CO)C(=O)c2cc(C#CC3CCCC3)cnc2O[C@H]1CN(C)C(=O)Nc1ccccc1	-6	-12[16.7 µM]	4	-5
11	C[C@H](CO)N1C[C@H](C)[C@@H](CN(C)Cc2cccnc2)Oc2ncc(C#CC3CCCCC3)cc2C1=O	1	-15[16.7 µM]	1	·
12	C[C@H](CO)N1C[C@H](C)[C@H](CN(C)Cc2cccnc2)Oc2ncc(C#CC3CCCCC3)cc2C1=O	0	-2[16.7 µM]	·	9
13	NCCCCCNC(=O)[C@@H]1C[C@@H]2C(=O)NCC(=O)N2[C@@H]1c1cccc(OCCO)c1	1	·	3	·
14	C/C(=N/NC(=O)CNC(=O)c1ccncc1)c1ccco1	2	-2	-2	5
15	C/C(=N/NC(=O)CNC(=O)c1ccco1)c1ccco1	-3	·	-2	5
16	CN(C)Cc1cn(CC[C@@H]2CC[C@@H](N)[C@H](CO)O2)nn1	-1	1[16.7 µM]	4	7

entry	Yeast UUG start-1	EWS-Fli block	Yeast UUG start-2
9	-1	14	·
10	157*	-13	i
11	141*	47	i
12	·	-6	·
13	2	-7	·
14	180*	5	8
15	-30	·	·
16	8	3	·

Ordered by the number under Yeast UUG start-1 (lowest first): four from the list above.
| # | structure | F508del corr | miR-122 sensor | PglD inh | LGR2 antag | Yeast UUG start-1 | Yeast UUG start-2 |
| --- | --- | --- | --- | --- | --- | --- | --- |
| 15 | C/C(=N/NC(=O)CNC(=O)c1ccco1)c1ccco1 | -3 | · | -2 | 5 | -30 | · |
| 5 | O=C(C1CCC1)N1C[C@H]2[C@@H](c3ccccc31)[C@H](CO)N2C(=O)Cc1ccccn1 | -1 | -30[16.7 µM] | 4 | 7 | 130* | i |
| 10 | C[C@@H]1CN([C@@H](C)CO)C(=O)c2cc(C#CC3CCCC3)cnc2O[C@H]1CN(C)C(=O)Nc1ccccc1 | -6 | -12[16.7 µM] | 4 | -5 | 157* | i |
| 14 | C/C(=N/NC(=O)CNC(=O)c1ccncc1)c1ccco1 | 2 | -2 | -2 | 5 | 180* | 8 |

Next section.
entry	canonical_smiles	F508del corr	miR-122 sensor	PglD inh	LGR2 antag
17	CC(C)c1cn(CC[C@H]2CC[C@H](N)[C@@H](CO)O2)nn1	-1	11[16.7 µM]	-1	-5
18	COc1ccc(/C=N/NC(=O)c2ccc3nc[nH]c3c2)c(OC)c1OC	0	-9	4	3
19	Cc1ccc(S(=O)(=O)N(C)C[C@@H]2Oc3ncc(-c4ccncc4)cc3C(=O)N([C@@H](C)CO)C[C@H]2C)cc1	1	-6[16.7 µM]	0	-18
20	C[C@@H]1CN([C@@H](C)CO)C(=O)c2cc(-c3ccncc3)cnc2O[C@@H]1CN(C)S(=O)(=O)c1ccc(F)cc1	5	7[16.7 µM]	9	26
21	Cc1ccc(S(=O)(=O)N(C)C[C@H]2Oc3ncc(Br)cc3C(=O)N([C@@H](C)CO)C[C@H]2C)cc1	-1	0[16.7 µM]	-33	0
22	C[C@@H]1CN([C@H](C)CO)C(=O)Cc2cc(NS(=O)(=O)c3ccc(F)cc3)ccc2O[C@H]1CN(C)S(=O)(=O)c1ccc(Cl)cc1	-1	2[16.7 µM]	-2	7
23	O=C(NCCS(=O)(=O)N1CCN(c2ccccc2)CC1)C1CC(=O)N(c2ccc(F)cc2)C1 (configuration not stated)	0	-7	1	-3
24	COCCN(C(=O)c1ccc(N2CCCC2=O)cc1)c1c(N)n(Cc2ccccc2)c(=O)[nH]c1=O	-1	-8	-3	2

entry	Yeast UUG start-1	EWS-Fli block	Yeast UUG start-2
17	134*	0	i
18	346*	36	-5
19	200*	2	i
20	·	-8	·
21	108*	-9	i
22	11	-5	·
23	-14	-2	·
24	-8	1	·

Next records follow.
entry	canonical_smiles	F508del corr	miR-122 sensor	PglD inh	LGR2 antag
25	Cc1ccc(NC(=O)CCC(=O)OC(C)C(=O)c2ccccc2)cc1 (configuration not stated)	0	·	-2	4
26	CC(C)NC(=O)Nc1ccc2c(c1)CC(=O)N([C@@H](C)CO)C[C@@H](C)[C@@H](CN(C)Cc1ccc(C(F)(F)F)cc1)O2	-1	-9[16.7 µM]	1	-2
27	CCOC(=O)C1CCN(C(=O)C(=O)c2cn(CC(=O)N3CCCCCC3)c3ccccc23)CC1	-3	-3	4	15
28	O=C(Cn1cc(C(=O)C2CC2)c2ccccc21)NCc1ccccc1	·	·	6	·
29	O=C(O)Cn1cc(C(=O)C2CC2)c2ccccc21	·	0	2	17
30	O=C(Cn1cc(C(=O)C2CC2)c2ccccc21)NCC1CCCO1 (configuration not stated)	·	-1	-4	·
31	CCOC(=O)C1CCN(C(=O)Cn2cc(C(=O)C3CC3)c3ccccc32)CC1	·	-2	0	·
32	O=C(c1cn(CC(=O)N2CCCCC2)c2ccccc12)C1CC1	·	4	11	·

entry	Yeast UUG start-1	EWS-Fli block	Yeast UUG start-2
25	-13	0	·
26	26	1	·
27	6	17	·
28	17	·	·
29	-5	·	·
30	9	·	6
31	-9	·	11
32	-15	·	3

(continued)
entry	canonical_smiles	F508del corr	miR-122 sensor	PglD inh	LGR2 antag
33	O=C(Cn1cc(C(=O)C2CC2)c2ccccc21)NC1CCCC1	·	2	-2	·
34	CCOC(=O)C1(C)Oc2ccccc2C(C(=O)OC)=C1C(=O)OC (configuration not stated)	1	-1	-5	8
35	COc1ccc(-c2ccc([C@@H]3[C@@H](CO)N4C(=O)CN(C(=O)C5CC5)C[C@@H]34)cc2)cc1	-2	·	·	-2
36	O=C(C[C@H]1C/C=C\CC[C@@H](Cc2ccc(F)cc2)C(=O)OC[C@H]2CCCN2C1=O)N[C@@H](CO)Cc1ccccc1	3	-3	3	-1
37	CC(C)(C)Cc1c(-c2ccc(C#N)cc2)nc2ccc(Cl)cn12	0	2	-5	4
38	C=CCN1C(=O)C2C(C(=O)NC)C3C=CC2(O3)C1C(=O)NCc1ccc(OC)cc1 (configuration not stated)	·	-1	-7	·
39	C=CCN1C(=O)C2C(C(=O)NCc3ccccc3)C3C=CC2(O3)C1C(=O)NC(C)(C)C (configuration not stated)	·	-4	0	·
40	C[C@@H]1CCCCO[C@@H](CN(C)C(=O)c2ccncc2)[C@H](C)CN([C@H](C)CO)C(=O)c2cc(NS(C)(=O)=O)ccc2O1	-1	5[16.7 µM]	-1	18

entry	Yeast UUG start-1	EWS-Fli block	Yeast UUG start-2
33	6	·	8
34	-8	8	·
35	·	3	·
36	-1	9	·
37	165*	0	-6
38	15	·	·
39	533*	·	-6
40	-7	-2	·

Source: PubChem BioAssay
